Measurements reported in ChEMBL document CHEMBL5634084, “Design and optimization of selective and potent CDK9 inhibitors with flavonoid scaffold for the treatment of acute myeloid leukemia” (Eur J Med Chem, 2023).

Experiments:
Homo sapiens [1] = species: Homo sapiens; assay: Selectivity ratio of IC50 for inhibition of CDK2/CyclinA2 (unknown origin) to IC50 for inhibition of CDK9/CyclinT1 (unknown origin)
Homo sapiens [2] = species: Homo sapiens; assay: Selectivity ratio of IC50 for inhibition of CDK1/CyclinA2 (unknown origin) to IC50 for inhibition of CDK9/CyclinT1 (unknown origin)
Homo sapiens [3] = species: Homo sapiens; assay: Selectivity ratio of IC50 for inhibition of CDK6/CyclinD1 (unknown origin) to IC50 for inhibition of CDK9/CyclinT1 (unknown origin)
Homo sapiens [4] = species: Homo sapiens; assay: Selectivity ratio of IC50 for inhibition of CDK7/CyclinH/MAT1 (unknown origin) to IC50 for inhibition of CDK9/CyclinT1 (unknown origin)

SMILES	Ratio IC50 (Homo sapiens [1])	Ratio IC50 (Homo sapiens [2])	Ratio IC50 (Homo sapiens [3])	Ratio IC50 (Homo sapiens [4])
COc1cc(O)c2c(=O)cc(-c3ccc(N4CCN(C)CC4)cc3)oc2c1C1=CCN(C)CC1	80	80	80	80
COc1cc(O)c2c(=O)cc(-c3ccc(N4CCN(C)CC4)cc3)oc2c1N1CCNCC1	40	60	60	60
